In PubChem BioAssay AID594 (National Center for Advancing Translational Sciences (NCATS), 2007):
Only a part is listed here, and it is no random draw. Calls of active or inactive are those of the source. Cut-off read from the data, not from the text of the source: active = max dye-equivalent concentration above about 11 nM; inconclusive = between about 1.1 nM and that limit; inactive = weaker than that.

Assay: qHTS Assay for Spectroscopic Profiling in Rhodamine Spectral Region
Settings: Rhodamine-region fluorescence, 547/598 nm, Tris buffer
From the text: NIH Molecular Libraries Screening Centers Network [MLSCN] NIH Chemical Genomics Center [NCGC] […] Occasionally, the artifactual effect may originate from the compound#s own spectral or other biophysical properties which generally tend to track its assay concentration. Pre-screening/profiling the library with respect to the compounds# spectral properties should help one exclude false positives early on. While the most informative fluorescent profiling data set is obtained by performing a full excitation and emission scan of each well by using a monochromator-based plate reader, such an approach is practical only on a very limited scale as scanning each well requires long time. An alternative approach, applied here, is to perform plate reader scans using selected excitation and emission wavelength pairs to generate a multidimensional relational database that correlates compound concentration and the respective relative fluorescence intensity at a given wavelength set. A standard curve of rhodamine present on each plate as six-point concentration series, was used to compute a normalized fluorescence response, termed dye-equivalent concentration, for each compound at each concentration.
NCGC Assay Protocol Summary: Buffer: 100 mM Tris buffer, pH 8.0 Dye standard plate: The wells in columns 1 through 4 of a Kalypsys polypropylene 1536-well compound plate were filled with standard solutions of fluorophore corresponding to the spectral region of interest. Solutions of rhodamine were placed in the following wells: E1, F1: 3 mM, E2, F2: 300 uM, E3, F3: 30 uM, E4, F4: zero (DMSO), G1, H1: 3 uM, G2, H2: […], G3, H3: 300 nM, G4, H4: zero (DMSO). Assay Steps: Six uL of buffer were dispensed to 1536-well Greiner black plates. Compounds and dye standards (23 nL) were transferred via Kalypsys PinTool. The plates were incubated for 15 min at room temperature, and then read on ViewLux (Perkin-Elmer) High-throughput CCD imager using 547 nm and 598 nm excitation and emission filter set. Keywords: NIH Roadmap, MLSCN, MLI, MLSMR, qHTS, NCGC, Rhodamine , Fluorescent Profiling.

Row | Compound | outcome
1 | N#CC1(Nc2ccccc2)CCN(CCc2ccccc2)CC1 | inactive
2 | NC1CCCCC1.NP(=O)(O)N(CCCl)CCCl | inactive
3 | O=C(OC1CN2CCC1CC2)C1c2ccccc2Oc2ccccc21 (configuration not stated) | inactive
4 | CCOc1ncccc1C(=O)NCC1(N2CCOCC2)CCCCC1 | inactive
5 | O=C(O)C1(Nc2ccccc2)CCN(Cc2ccccc2)CC1 | inactive
6 | CCC(CO)(C(=O)OC1CN2CCC1CC2)c1ccccc1 (configuration not stated) | inactive
7 | N/C(=N\O)c1c(N)no[n+]1[O-] | inactive
